These are literature values, as cited in patent publication US20060281813A1, “Methods of treating hyperproliferative cell disorders” (priority 2003, published 2006).

Read-outs that look alike come from different tables or passages of the source.

The series deals with breast cancer. The conditions noted are these: cited from earlier work.

As to “Herceptin: a targeted antibody to Her2/neu”, the response rate was 30-50% (in combination with chemotherapy) and 16% (single agent, breast cancer).
